Measurements reported in ChEMBL document CHEMBL4428114, “An LP1 analogue, selective MOR agonist with a peculiar pharmacological profile, used to scrutiny the ligand binding domain” (Bioorg Med Chem, 2016).

Amino acid sequences for entries named in this document (tags omitted). A change or cut given only in a name is not applied to a line headed by its entry.
UniProt P34975: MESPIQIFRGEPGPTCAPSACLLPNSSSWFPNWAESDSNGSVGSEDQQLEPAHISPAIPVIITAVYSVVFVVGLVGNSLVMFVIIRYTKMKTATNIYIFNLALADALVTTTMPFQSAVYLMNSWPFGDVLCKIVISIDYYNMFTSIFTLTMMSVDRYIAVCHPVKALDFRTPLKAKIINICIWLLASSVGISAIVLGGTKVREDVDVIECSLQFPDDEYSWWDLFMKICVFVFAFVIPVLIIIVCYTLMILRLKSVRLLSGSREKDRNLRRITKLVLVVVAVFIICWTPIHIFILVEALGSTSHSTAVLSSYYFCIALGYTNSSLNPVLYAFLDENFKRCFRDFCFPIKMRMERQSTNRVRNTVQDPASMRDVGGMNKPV

Target: Kappa-type opioid receptor (Rattus norvegicus, UniProt P34975)
Test: Displacement of [3H]U69593 from rat KOR expressed in CHO cells
Format: cell-based

## CN(C(=O)Cc1ccc(Cl)c(Cl)c1)C1CCCCC1N1CCCC1 (stereo unspecified)
  Ki: 0.6 nM
